Data taken from article PMC10349104.
“And” between values parts separate entries of the source, which are not always exact repeats. Identical values can stand only once.

What was measured:
Assay in all cases: SPR
[1] = molecular target: EVA-A(Y44A) (Amblyomma americanum)
[2] = molecular target: EVA-A(Y44A) (A. americanum)
[3] = molecular target: EVA-A(L39P) (Amblyomma americanum)
[4] = molecular target: EVA-A(L39P) (A. americanum)
[5] = molecular target: EVA-A(1-98) (A. americanum)
[6] = molecular target: EVA-A(C8) (A. americanum)

Which results are given for “CCL7(Y13A) (from UniProt P80098 24-99) (ligand)”?
Kd [1]: 19.5 nM and 22 nM and 18.6 nM; koff [1]: 0.00833 s⁻¹ and 0.00894 s⁻¹ and 0.00913 s⁻¹; kon [1]: 428000 M⁻¹ s⁻¹ and 406000 M⁻¹ s⁻¹ and 490000 M⁻¹ s⁻¹; Kd [2]: 20 nM; koff [2]: 0.0088 s⁻¹; kon [2]: 441000 M⁻¹ s⁻¹; Kd [3]: 0.0342 nM and 0.0822 nM and 0.0127 nM; kon [3]: 662000 M⁻¹ s⁻¹ and 703000 M⁻¹ s⁻¹ and 689000 M⁻¹ s⁻¹; Kd [4]: < 0.1 nM; koff [4]: < 0.0001 s⁻¹; kon [4]: 685000 M⁻¹ s⁻¹

For “CCL7 (from UniProt P80098 24-99) (ligand)”, which koff [1] is on record?
The koff was 0.00186 s⁻¹ and 0.0018 s⁻¹ and 0.00229 s⁻¹.

What about the kon [1] of the same substance?
Its kon is 403000 M⁻¹ s⁻¹ and 333000 M⁻¹ s⁻¹ and 520000 M⁻¹ s⁻¹.

And the Kd [2]?
The Kd was 4.81 nM.

And the koff [2]?
The koff was 0.00199 s⁻¹.

What about the kon [2] of the same substance?
The kon was 419000 M⁻¹ s⁻¹.

What about the koff [5] of the same substance?
The koff was 0.00179 s⁻¹.

What about the kon [5] of the same substance?
Its kon is 31000 M⁻¹ s⁻¹.

What about the Kd [3] of the same substance?
Its Kd is 0.0725 nM and 0.0574 nM and 0.058 nM.

What about the koff [3] of the same substance?
The koff was 5.95e-05 s⁻¹ and 6.13e-05 s⁻¹ and 7.32e-05 s⁻¹.

What about the kon [3] of the same substance?
Its kon is 821000 M⁻¹ s⁻¹ and 1.07e+06 M⁻¹ s⁻¹ and 1.26e+06 M⁻¹ s⁻¹.

And the Kd [4]?
Its Kd is < 0.1 nM.

What about the koff [4] of the same substance?
Its koff is < 0.0001 s⁻¹.

What about the kon [4] of the same substance?
Its kon is 1.05e+06 M⁻¹ s⁻¹.

And the koff [6]?
The koff was 0.166 s⁻¹.

And the kon [6]?
The kon was 177000 M⁻¹ s⁻¹.
